The numbers were not newly measured in US20050250835A1, “Novel tumor-selective chemotherapeutic agents” (priority 2004, published 2005), which cites them from elsewhere.

For series [1], the system named is metastatic renal cell carcinoma. The conditions noted are these: cited from earlier work.
The conditions of series [2]: cited from earlier work.
The subject of series [3] is different human tumor xenografts. Conditions: human tumor xenografts s.c. in nude mice; cited from earlier work.
Series [4] relates to malignant mesothelioma of the pleura or peritoneum. The conditions noted are these: cited from earlier work.
Setting [5] is: 17 patients, 50 mg/m^2 once a week intravenously.
Setting [6] is: weekly i.v. infusion of 50 mg/m^2, 29 patients.

MTX-HSA: the “duration of stable disease” value in series [1] (50 mg/m^2 once a week) is recorded as “up to 8 months”. In addition, in series [1] (setting [5]), the objective responses result was “no objective responses” and the “patients with stable disease (stabilization>2 months)” value is “Eight”. In series [2] (20, 40, 50 and 60 mg/m^2, 17 patients), the tolerability entry was “well tolerated”. For the same substance, the “patients with tumor responses” value in series [2] (Phase I study of 17 patients) is “three”. Moreover, the “antitumor activity in vivo” value in series [3] is “dose-dependent antitumor activity”. Also, in series [4] (23/29 patients assessed), the “patients with NC>3 month” value was 11 patients and the “patients with early disease progression within the first 2 months” value is 6 patients. Also, in series [4] (setting [6]), the “grade 3 stomatitis” value is on record as 10%, the “grade 3 thrombopenia” value is listed as 2%, the “grade 4 stomatitis” value was 2% and the “grade 4 thrombopenia” value is on record as 12%.
